Results as given in patent US20140360376A1, “RECOVERY OF HIGHER ALCOHOLS FROM DILUTE AQUEOUS SOLUTIONS” (GEVO, INC., priority 2007, published 2014).
Several values for one entry are separate records, joined by “and”; a condition that tells them apart may be missing. Equal values may be shown once.

Assay: Enrichment/extraction of i-BuOH from aqueous solution by contact with tri-butyl phosphate
Format: physicochemical
Details: 25° C., equilibrium

CCCCOP(=O)(OCCCC)OCCCC
TBP Wt % in heavy phase: 0.016 Wt % and 0.023 Wt % and 0.024 Wt %
